The values that follow are results of earlier work, collected in patent US20140342369A1, “HAPLOID CELLS” (published 2014).

The subject of this series is mammalian fucosyl-transferases FucTIII, V, VI, and VII. The note with it: previously shown (Büchsel et al., 1980 and others); cited from earlier work.

As to `O=CC[C@@H](O)[C@@H](O)[C@H](O)CO`, the inhibition of fucosyl-transferases entry is listed as “specifically inhibit”.
